From patent publication US20040210047A1, “Methallyl sucroses and their epoxy derivatives” (priority 2003, published 2004)

Assays:
[1] = tested on: Salmonella Typhimurium TA-98; experiment: Modified Maron-Ames test, strain TA-98; conditions: tester strain TA-98, all concentrations
Experimental: (§1) Serial dilutions (100 fold) were made with DMSO to obtain samples with dilution factors of 10^−3, 10^−5, and 10^−7. The assays were performed according to the modified methods of Maron and Ames (Maron D. R. and Ames, B. N. Mutation Research, 1980, Vol. 113, 173-215) using two strains of Salmonella Typhimurium TA-98 and TA-100, with and without metabolic activation of the substrate. The male rat microsomal homogenate S-9 was used to effect metabolic activation of the substrate. TA-98 and TA-100 were cultured in Oxoid Nutrient Broth No.2 at 37° C. for 16 hours using a gyratory shaker (200-250 rpm).
(§2) Compounds were assayed after the bacteria tested positive for the viability-related criteria above. Two mL top agar was placed in sterile culture tubes and kept at ˜40° C. in a water bath. Samples (100 μL) were placed in each tube (3 tubes per sample) and 100 μL of either strain TA-98 or TA-100 was added. When required, the S-9 homogenate (500 μL) was then added. The tubes were mixed and poured into minimal glucose agar plates. The plates were left at room temperature until the top agar solidified. Then, they were inverted and incubated at 37° C. for 48 hours. After incubation, revertant colonies were counted. Samples that presented greater than 2 times the number of revertant colonies were considered mutagenic. (See FIGS. 9(a) through (f)).

[2] = tested on: Salmonella Typhimurium TA-100; experiment: Modified Maron-Ames test, strain TA-100
Experimental: as §1, with “Serial dilutions (100 fold) were made with DMSO to obtain samples with dilution factors of 10^−3, 10^−5, and 10^−7.” left out
as §2

epoxymethallyl sucrose [EMS]
cytotoxicity and mutagenicity, overall conclusion [1]: neither cytotoxic nor mutagenic
cytotoxicity relative to DGEBA ([2]; Maron-Ames tests, 10 mg/mL DMSO, strain not stated): about one-tenth
cytotoxicity and mutagenicity ([2]; dilution factors beyond 10^−1): neither cytotoxic nor mutagenic
cytotoxicity and mutagenicity, summary statement ([2]; stated advantage over the state of the art, strain not stated): negligible cytotoxicity and mutagenicity
